Reference: patent US20090286772A1

Sequences of proteins named here, by UniProt entry; tags and fusion partners are left off.
UniProt O14684, whole entry: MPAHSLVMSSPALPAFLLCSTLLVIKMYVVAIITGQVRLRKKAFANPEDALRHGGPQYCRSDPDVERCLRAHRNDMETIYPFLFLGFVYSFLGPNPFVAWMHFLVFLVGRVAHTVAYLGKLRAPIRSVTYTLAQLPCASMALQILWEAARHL

Molecular target: human mPGES-1 (Homo sapiens, UniProt O14684)
Test: Microsomal prostaglandin E synthase assay (PGE2 by EIA)
Details: read-out: h-CHO IC50 (inhibition of PGE2 synthesis); microsomes from CHO-K1 cells transfected with human mPGES-1; 1 μM PGH2; average of at least n=3
Protocol: Compounds are tested as inhibitors of prostaglandin E synthase activity in microsomal prostaglandin e synthases, whole cell and in vivo assays. These assays measure prostaglandin E2 (PGE2) synthesis using either Enzymatic Immunoassay (EIA) or mass spectrometry. Cells used for microsomal preparation are CHO-K1 cells transiently transfected with plasmids encoding the human mPGES-1 cDNA. Cells used for cell-based experiments are human A549 (which express human mPGES-1). Guinea pigs are used to test the activity of selected compounds in vivo. In all these assays, 100% activity is defined as the PGE2 production in vehicle-treated samples. IC50 and ED50 represent the concentration or dose of inhibitor required to inhibit PGE2 synthesis by 50% as compared to the uninhibited control.
Prostaglandin E synthase microsomal fractions are prepared from CHO-K1 cells transiently transfected with plasmid encoding the human mPGES-1 cDNA. Microsomes are then prepared and the PGES assay begins with the incubation of 5 μg/ml microsomal PGES-1 with compound or DMSO (final 1%) for 20-30 minutes at room temperature. The enzyme reactions are performed in 200 mM KPi pH 7.0, 2 mM EDTA and 2.5 mM GSH-reduced form. The enzymatic reaction is then initiated by the addition of 1 μM final PGH2 substrate prepared in isopropanol (3.5% final in assay well) and incubated at room temperature for 30 seconds. The reaction is terminated by the addition of SnCl2 in 1N HCl (1 mg/ml final). Measurement of PGE2 production in the enzyme reaction aliquots is done by EIA using a standard commercially available kit (Cat #: 901-001 from Assay Designs).
The potency is expressed as IC50 and the value indicated is an average of at least n=3.

Row | SMILES | IC50 [nM]
1 | Brc1cncc(Br)c1-c1nc2c3ccccc3c3ccccc3c2[nH]1 | 77
2 | CC(C)(O)c1ccc2c(c1)c1cc(Br)ccc1c1nc(-c3c(Br)cccc3Br)[nH]c21 | 5.5
3 | OC(c1ccc2c(c1)c1cc(Sc3ccncc3)ccc1c1nc(-c3c(F)cccc3Cl)[nH]c21)(C(F)(F)F)C(F)(F)F | 9
4 | COC(=O)CCC#Cc1ccc2c(c1)c1cc(Br)ccc1c1nc(-c3c(F)cccc3Cl)[nH]c21 | 1.7
5 | Cc1ccccc1-c1nc2c3ccccc3c3ccccc3c2[nH]1 | 131
6 | Fc1ccc(-c2nc3c4ccccc4c4ccccc4c3[nH]2)c(C(F)(F)F)c1 | 233
7 | Fc1cccc(Cl)c1-c1nc2c3ccc(-c4cccnc4)cc3c3cc(-c4cccnc4)ccc3c2[nH]1 | 33
8 | OC(c1ccc2c(c1)c1cc(-c3ccc(-c4ccccc4)c(F)c3)ccc1c1nc(-c3c(F)cccc3Cl)[nH]c21)(C(F)(F)F)C(F)(F)F | 26

More lines, in order of falling IC50, values ahead:

Row | IC50 [nM] | SMILES
9 | 551 | CSc1ccc(C)c(-c2nc3c4ccccc4c4ccccc4c3[nH]2)c1
10 | 50 | Brc1ccccc1-c1nc2c3ccccc3c3ccccc3c2[nH]1
11 | 8.5 | CC(=NO)c1ccc2c(c1)c1cc(Cl)ccc1c1nc(-c3c(Cl)cccc3Cl)[nH]c21
12 | 5.7 | Fc1cccc(C(F)(F)F)c1-c1nc2c3ccc(Br)cc3c3cc(Br)ccc3c2[nH]1
13 | 3.9 | Clc1ccc2c(c1)c1cc(Br)ccc1c1[nH]c(-c3c(Cl)cccc3Cl)nc21
